{"source": "patent US20100273655A1", "about": "“Composition and method for controlling invasive aquatic flora” (priority 2007, published 2010)", "origin": "cited, not measured here", "tested_on": "rainbow trout", "conditions": "material safety data sheet"}
{"smiles": "[Br-].[Br-].c1cc[n+]2c(c1)-c1cccc[n+]1CC2", "note": "[diquat dibromide, 6,7-dihydrodipyrido(1,2-a:2′,1′-c)pyrazinediium dibromide]", "values": [{"measurement": "LC59, rainbow trout", "value": 14.83, "unit": "parts per million"}]}
